Here are results for one compound from US20260027108A1, “PHARMACEUTICAL COMPOSITION OF HETEROARYL DERIVATIVE AND MEDICAL USE THEREOF” (Haisco Pharmaceutical Group Co., Ltd., priority 2022, published 2026).

The subject of this assay is MDA-MB-436 cells. Description: MDA-MB-436 cell activity test (CellTiter-Glo, 7 days). The conditions noted are these: read-out: MDA-MB-436 cell inhibitory activity IC50; 7 days incubation.

One may read the IC50 as the concentration needed to halve the response being measured. In the case of `CCc1cc2ncc(CN3CCN(c4ccc(NC(=O)C5CC5(F)F)nc4)CC3)cc2[nH]c1=O` (single isomer, unassigned) [Compound 50], the IC50 is 3 nM.
